Assay results as given in patent publication EP1144369B1 (Wyeth Holdings Corporation, priority 1999, dated 2000).

Chains of the proteins cited; added tags and fusions are not shown. Residues count along the entry.
UniProt P78536, 215-824, species assumed: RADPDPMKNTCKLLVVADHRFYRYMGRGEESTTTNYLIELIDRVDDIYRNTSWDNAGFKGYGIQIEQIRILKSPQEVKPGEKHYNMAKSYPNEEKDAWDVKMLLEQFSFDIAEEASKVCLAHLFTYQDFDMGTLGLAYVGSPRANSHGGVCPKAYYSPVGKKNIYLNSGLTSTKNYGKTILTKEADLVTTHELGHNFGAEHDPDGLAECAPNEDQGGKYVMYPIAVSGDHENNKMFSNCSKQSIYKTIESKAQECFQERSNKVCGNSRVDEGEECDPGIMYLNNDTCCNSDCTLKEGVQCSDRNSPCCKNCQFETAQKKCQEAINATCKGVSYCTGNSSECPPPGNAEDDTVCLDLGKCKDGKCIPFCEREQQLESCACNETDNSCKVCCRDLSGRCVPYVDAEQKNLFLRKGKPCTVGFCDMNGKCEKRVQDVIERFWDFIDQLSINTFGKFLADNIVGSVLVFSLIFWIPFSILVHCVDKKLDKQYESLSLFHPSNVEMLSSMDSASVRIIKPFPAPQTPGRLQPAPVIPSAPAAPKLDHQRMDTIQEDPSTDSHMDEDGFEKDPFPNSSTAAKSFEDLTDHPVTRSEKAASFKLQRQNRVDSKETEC

Legend:
[1] = biological target: TNF-α converting enzyme (TACE) (Homo sapiens, UniProt P78536); assay: TACE inhibition (fluorescent peptidyl substrate); format: biochemical; conditions: read-out: IC50 (nM) or % Inhibition (µM) TACE
[2] = biological target: T1, MMP-1 (Homo sapiens, UniProt P03956); assay: MMP-1 inhibition (thiopeptide or fluorescent peptide substrate); format: biochemical; conditions: plain number = IC50
T1 sequence (P03956 100-469): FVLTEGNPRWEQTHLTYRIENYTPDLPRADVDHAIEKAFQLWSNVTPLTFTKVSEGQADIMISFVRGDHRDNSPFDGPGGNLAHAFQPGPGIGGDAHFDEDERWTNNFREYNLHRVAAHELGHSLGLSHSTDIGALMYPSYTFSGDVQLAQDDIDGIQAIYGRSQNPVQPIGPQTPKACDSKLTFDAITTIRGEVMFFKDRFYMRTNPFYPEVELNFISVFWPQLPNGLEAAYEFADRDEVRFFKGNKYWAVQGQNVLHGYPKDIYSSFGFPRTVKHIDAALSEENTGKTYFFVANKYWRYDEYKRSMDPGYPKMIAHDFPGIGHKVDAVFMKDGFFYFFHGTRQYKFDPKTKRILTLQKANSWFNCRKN

IC50 [2] | SMILES | IC50 [1]
– | COc1ccc(S(=O)(=O)N(C)c2c(C)cc(Br)cc2C(=O)NO)cc1 [Example 36, 5-Bromo-N-hydroxy-2-[(4-methoxy-benzenesulfonyl)-methyl-amino]-3-methyl-benzamide] | 32 nM
– | CC#CCOc1ccc(S(=O)(=O)N(C)c2c(C)cc(Br)cc2C(=O)NO)cc1 [Example 54, 5-Bromo-2-[(4-But-2-ynyloxy-benzenesulfonyl)-methyl-amino]-N-hydroxy-3-methyl-benzamide] | 16 nM
3810 nM | Cc1cc(Br)cc(C(=O)NO)c1N(C)S(=O)(=O)c1ccc(OCC#Cc2ccccc2)cc1 [Example 59, 5-Bromo-N-hydroxy-3-methyl-2-{methyl-[4-(3-phenyl-prop-2-ynyloxy)-benzenesulfonyl]-amino}-benzamide] | –
